The structures appear in SMILES notation. Where only a bound is given, the exact number is not on record here.

Sequences of proteins named here, by UniProt entry; tags and fusion partners are left off.
UniProt P49841, whole entry: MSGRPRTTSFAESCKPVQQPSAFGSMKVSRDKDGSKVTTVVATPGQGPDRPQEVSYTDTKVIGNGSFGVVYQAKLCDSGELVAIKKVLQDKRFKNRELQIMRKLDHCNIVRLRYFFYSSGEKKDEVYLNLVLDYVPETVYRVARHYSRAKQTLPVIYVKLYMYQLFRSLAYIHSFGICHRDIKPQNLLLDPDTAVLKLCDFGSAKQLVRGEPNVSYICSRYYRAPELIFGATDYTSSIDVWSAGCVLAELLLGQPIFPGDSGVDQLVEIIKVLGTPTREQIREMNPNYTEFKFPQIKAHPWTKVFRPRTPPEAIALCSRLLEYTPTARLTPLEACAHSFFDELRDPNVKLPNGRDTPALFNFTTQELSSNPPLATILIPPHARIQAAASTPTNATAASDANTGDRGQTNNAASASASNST
UniProt O14965, whole entry: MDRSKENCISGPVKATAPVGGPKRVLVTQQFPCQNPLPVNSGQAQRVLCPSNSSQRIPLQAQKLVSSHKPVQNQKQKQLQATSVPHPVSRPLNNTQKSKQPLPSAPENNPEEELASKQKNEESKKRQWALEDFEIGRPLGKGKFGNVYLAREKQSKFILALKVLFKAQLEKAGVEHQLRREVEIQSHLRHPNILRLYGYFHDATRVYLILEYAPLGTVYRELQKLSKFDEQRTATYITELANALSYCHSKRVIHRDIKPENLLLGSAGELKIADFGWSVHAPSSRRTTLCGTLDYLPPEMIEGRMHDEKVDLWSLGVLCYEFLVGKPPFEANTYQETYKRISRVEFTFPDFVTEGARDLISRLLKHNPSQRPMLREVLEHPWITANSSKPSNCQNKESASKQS

Here are results for 1 compound from patent US7256190B2, “Thiazole compounds useful as inhibitors of protein kinase” (Vertex Pharmaceuticals Incorporated, priority 2001, dated 2007).

In experiment [1] the target is GSK3-β (AA 1-420) (Homo sapiens, UniProt P49841). As to the kind of experiment: GSK-3 inhibition assay (coupled enzyme system). The note with it: read-out: GSK3-β Activity (Ki); 10 μM ATP, 300 μM peptide, 60 nM GSK-3β, 30° C. On the procedure: Compounds were screened for their ability to inhibit GSK3-β (AA 1-420) activity using a standard coupled enzyme system (Fox et al. (1998) Protein Sci. 7, 2249). Reactions were carried out in a solution containing 100 mM HEPES (pH 7.5), 10 mM MgCl2, 25 mM NaCl, 300 μM NADH, 1 mM DTT and 1.5% DMSO. Final substrate concentrations in the assay were 10 μM ATP (Sigma Chemicals, St Louis, Mo.) and 300 μM peptide (HSSPHQS(PO3H2)EDEEE, American Peptide, Sunnyvale, Calif.). Reactions were carried out at 30° C. and 60 nM GSK-3β. Final concentrations of the components of the coupled enzyme system were 2.5 mM phosphoenolpyruvate, 300μM NADH, 30 μg/ml pyruvate kinase and 10 μg/ml lactate dehydrogenase.
An assay stock buffer solution was prepared containing all of the reagents listed above with the exception of ATP and the test compound of interest. 59 μl of the test reaction was placed in a 96 well ½-diameter plate (Corning, Corning, N.Y.) then treated with 1 μl of a 2 mM DMSO stock containing the test compound (final compound concentration 30 μM). The plate was incubated for ˜10 minutes at 30° C. then the reaction initiated by addition of 7 μl of ATP (final concentration 10 μM). Rates of reaction were obtained using a Molecular Devices Spectramax plate reader (Sunnyvale, Calif.) over a 5 minute read time at 30° C.
(§1) The compound numbers correspond to the compound numbers in Table 1.

Experiment [2] has as its target Aurora2 (Homo sapiens, UniProt O14965). As to the kind of experiment: Aurora2 inhibition assay (coupled enzyme assay). The conditions noted are these: read-out: Aurora2 Activity (IC50); 800 μM peptide LRRASLG, 70 nM Aurora2, 30° C. On the procedure:
Compounds are screened in the following manner for their ability to inhibit Aurora2 using a standard coupled enzyme assay (Fox et al (1998). Protein Sci 7, 2246). To an assay stock buffer solution containing 0.1M HEPES 7.5, 10 mM MgCl2, 1 mM DTT, 25 mM NaCl, 2.5 mM prosphoenolpyruvate, […], […] pyruvate kinase, […] lactate dehydrogenase, […], and 800 μM peptide (LRRASLG, American Peptide, Sunnyvale, Calif.) is added a DMSO solution of a compound of the present invention to a final concentration of 30 μM. The resulting mixture is incubated at 30° C. for 10 minutes. The reaction was initiated by the addition of 10 μL of Aurora2 stock solution to give a final concentration of 70 nM in the assay. The rates of reaction are obtained by monitoring absorbance at 340 nm over a 5 minute read time at 30° C. using a BioRad Ultramark plate reader (Hercules, Calif.). The IC50 values are determined from the rate data as a function of inhibitor concentration.
as §1

Experiment [3] concerns the target Syk (Homo sapiens, UniProt P43405). Briefly: Syk inhibition assay (coupled enzyme assay). The conditions noted are these: read-out: Syk Activity (IC50); 200 μM ATP, 4 μM poly Gly-Tyr peptide, 30° C.

As for `Clc1cccc(Cl)c1CNc1cccc(Nc2nccc(-c3nccs3)n2)c1`, in experiment [1], the Ki is < 100 nM. For the same compound, the IC50 in experiment [2] and in experiment [3] was > 2000 nM in each case.

The term Ki denotes the dissociation constant of the complex between target and ligand, obtained from inhibition or displacement. In general, IC50 refers to the concentration needed to halve the response being measured.
